Assay results as given in patent US20220089578A1, “COMPOUNDS AS GLP-1R AGONISTS” (Terns Pharmaceuticals, Inc., priority 2020, published 2022).

Protein sequences, listed by entry. Tags and fused reporters are not part of them. Residues count along the entry.
UniProt P43220, 24-463 limits assumed: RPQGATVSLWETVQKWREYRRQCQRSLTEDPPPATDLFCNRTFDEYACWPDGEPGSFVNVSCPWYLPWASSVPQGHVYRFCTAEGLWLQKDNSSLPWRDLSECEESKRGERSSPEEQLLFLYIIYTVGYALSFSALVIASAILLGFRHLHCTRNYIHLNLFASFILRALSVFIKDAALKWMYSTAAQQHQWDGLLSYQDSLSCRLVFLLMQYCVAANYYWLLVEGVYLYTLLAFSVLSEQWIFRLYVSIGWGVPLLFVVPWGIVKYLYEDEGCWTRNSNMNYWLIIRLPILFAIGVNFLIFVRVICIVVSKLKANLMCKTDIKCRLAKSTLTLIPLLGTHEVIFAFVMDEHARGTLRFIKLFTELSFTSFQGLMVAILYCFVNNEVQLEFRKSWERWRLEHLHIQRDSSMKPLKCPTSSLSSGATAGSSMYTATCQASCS

Biological target: human GLP-1R (Homo sapiens, UniProt P43220)
Experiment: GLP-1R Cell Assay 1: cAMP Hunter CHO-K1 GLP1R Gs cell line, HitHunter cAMP assay
Settings: read-out: GLP-1R Cell Assay 1 EC50; Table 2; cAMP Hunter CHO-K1 GLP1R Gs cells; percent activity normalized to Exendin-4
Method: GLP-1R mediated agonist activity was determined using the cAMP Hunter CHO-K1 GLP1R Gs cell line (DiscoverX, cat# 95-0062C2), a stable CHO-K1 derived cell lines overexpressing naturally Gs coupled wild-type human GLP-1R (accession number: NM_002062.3). GLP-1R agonism in this cell line was detected by measuring cellular cAMP levels using the HitHunter cAMP assay kit (cat# 90-0075SM2), a homogenous, gain-of-signal competitive immune assay based on Enzyme Fragment Complementation (EFC) technology. In this system cellular cAMP competes with exogenous labeled cAMP (ED-cAMP) for binding to an anti-cAMP antibody. […] The luminescent signal is directly proportional to the amount of cellular cAMP.
For compound testing, cells were seeded in a total volume of 20 μL in white walled, 384-well microplates and incubated at 37° C. prior to compound testing. Prior to compound addition, cell culture media was removed by aspiration and replaced with 15 pt reagent buffer (2:1 HBSS/10 mM HEPES: cAMP XS+Ab reagent). […] Microplates were read on a PerkinElmer Envision instrument. Compound activity was analyzed using CBIS data analysis suite (ChemInnovation). Percent activity was calculated based on duplicate assay runs and normalized to the positive control Exendin-4, a GLP-1R peptide agonist, using the following formula: […]

- EC50: 0.257 nM
SMILES: O=C(O)c1ccc2nc(CN3CCC4(c5cccc(OCc6ccc(Cl)cc6F)n5)CC4C3)n(C[C@@H]3CCO3)c2c1 (stereo partly shown)
